Assay results reported in patent US20260146061A1.

Columns and labels:
[1] = biological target: IgG of IgG Sepharose 6 Fast Flow affinity resin; assay: IgG Sepharose 6 Fast Flow affinity chromatography, cycle 0, soluble protein A load
[2] = biological target: IgG of IgG Sepharose 6 Fast Flow affinity resin; assay: IgG Sepharose 6 Fast Flow affinity chromatography, cycle 0, soluble protein A load of 7.6 mg at pH 7.4

“soluble Protein A (from UniProt P38507 37-477)” was tested, and the eluate recovery, % Mass (bound and eluted) [1] was 76%, the eluate recovery, % Peak Area (bound and eluted) [1] was 100% and the flowthrough recovery, % Peak Area (unbound) [1] was 0%. For the same substance, the pooled eluate mass (bound and eluted) [2] was 1.2 mg.
